# Reference: publication PMC7723054
# This is one part of the list.
# T1: LIN28A (human?, UniProt Q9H9Z2 1-209)
# T1 sequence: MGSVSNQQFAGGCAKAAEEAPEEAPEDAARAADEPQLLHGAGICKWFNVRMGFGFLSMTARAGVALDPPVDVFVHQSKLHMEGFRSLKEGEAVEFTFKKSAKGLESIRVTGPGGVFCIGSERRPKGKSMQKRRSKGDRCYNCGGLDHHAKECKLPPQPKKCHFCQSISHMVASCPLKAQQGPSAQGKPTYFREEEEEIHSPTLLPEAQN
# T2: CIRBP (Homo sapiens, UniProt Q14011 1-172)
# T2 sequence: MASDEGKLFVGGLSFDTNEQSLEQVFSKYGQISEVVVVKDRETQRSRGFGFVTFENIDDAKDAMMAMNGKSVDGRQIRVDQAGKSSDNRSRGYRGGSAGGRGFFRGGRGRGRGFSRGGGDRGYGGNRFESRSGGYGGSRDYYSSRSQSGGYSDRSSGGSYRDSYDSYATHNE
# T3: DHX36 (Homo sapiens, UniProt Q9H2U1 1-1008)
# T3 sequence: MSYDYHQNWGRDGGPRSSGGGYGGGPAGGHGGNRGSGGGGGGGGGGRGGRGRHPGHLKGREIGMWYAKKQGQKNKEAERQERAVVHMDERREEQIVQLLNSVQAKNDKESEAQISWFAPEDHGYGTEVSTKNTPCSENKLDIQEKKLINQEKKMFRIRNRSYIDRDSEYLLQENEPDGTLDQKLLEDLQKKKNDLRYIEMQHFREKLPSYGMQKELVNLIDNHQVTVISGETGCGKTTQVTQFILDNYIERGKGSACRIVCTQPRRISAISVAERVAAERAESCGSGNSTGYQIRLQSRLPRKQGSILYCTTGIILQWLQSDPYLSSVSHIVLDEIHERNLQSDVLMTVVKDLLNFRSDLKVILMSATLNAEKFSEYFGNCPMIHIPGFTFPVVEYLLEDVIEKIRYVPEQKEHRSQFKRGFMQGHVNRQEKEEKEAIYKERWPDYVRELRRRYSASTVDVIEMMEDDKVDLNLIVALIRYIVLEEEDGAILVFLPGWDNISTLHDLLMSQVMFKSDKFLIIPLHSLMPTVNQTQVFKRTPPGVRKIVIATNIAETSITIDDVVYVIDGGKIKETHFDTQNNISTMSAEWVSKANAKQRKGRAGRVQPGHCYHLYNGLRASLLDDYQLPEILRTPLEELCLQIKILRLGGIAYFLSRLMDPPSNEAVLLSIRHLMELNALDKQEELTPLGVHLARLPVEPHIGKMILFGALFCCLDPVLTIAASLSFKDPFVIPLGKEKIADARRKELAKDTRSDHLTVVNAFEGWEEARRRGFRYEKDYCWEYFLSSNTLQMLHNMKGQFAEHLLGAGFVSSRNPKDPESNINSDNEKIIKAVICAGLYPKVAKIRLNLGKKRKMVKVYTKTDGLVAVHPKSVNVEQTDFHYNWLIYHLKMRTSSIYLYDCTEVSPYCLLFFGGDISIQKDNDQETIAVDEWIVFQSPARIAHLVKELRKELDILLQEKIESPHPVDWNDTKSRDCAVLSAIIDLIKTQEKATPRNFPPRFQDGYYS
# B1: hsa-mir-5706 (structured_RNA)
# RNA: GGGAUCCACAGCGAGGAGUUUCGAGACAGGUGUACGAAGUUUCAGCAGCUUCUACGUCAUUCAGCACUUGCUGCUGAAGCUUCGUGCAC
# B2: hsa-mir-6736 (structured_RNA)
# RNA: GGGAAUAAAGACGGGAAGGCUCAGAAUAGGUGUACGAAGUUUCAGCCUGUGGUUUGCUGGCUGCCUCAGGCUGAAGCUUCGUGCAC
# B3: hsa-mir-4784 (structured_RNA)
# RNA: GGGAAAGCGGGUGAGACAGUAAUCAACCGGUGUACGAAGUUUCAGCCUGAGAGUGUCAUGGUGGAGCCUCCGGCUGAAGCUUCGUGCAC
# B4: hsa-mir-199b (structured_RNA)
# RNA: GGGAACGAGGAGGUUUAUUUAAGAAGUCGGUGUACGAAGUUUCAGCCUGUUCAGGACUCCCAAAUUGUACAGGCUGAAGCUUCGUGCAC
# B5: hsa-mir-297 (structured_RNA)
# RNA: GGGACGAGACCCAGGUACAAUCAUAAAUGGUGUACGAAGUUUCAGCCAUGUAUGUGUAUAUACAUAUAUAUGGCUGAAGCUUCGUGCAC
# B6: hsa-mir-7157 (structured_RNA)
# RNA: GGGAACCCGGCUCUGUCUCGGAGUAUGUGGUGUACGAAGUUUCAGCCAGAGAUGAAAUUGGGACUCCUCUGCUGAAGCUUCGUGCAC
# B7: hsa-mir-2053 (structured_RNA)
# RNA: GGGAACGUUGAAUUGACGCGCUUAGCACGGUGUACGAAGUUUCAGCACAUUUGCAACCUGUGAAGAUGCAAAACUUUAAGUGUGCUGAAGCUUCGUGCAC
# B8: hsa-mir-3154 (structured_RNA)
# RNA: GGGAAUCGACGAUUAAGUGGCGAGACUUGGUGUACGAAGUUUCAGCCCUGCCACGUCAAAGGAGGCAGAGCUGAAGCUUCGUGCAC
# B9: hsa-mir-6125 (structured_RNA)
# RNA: GGGAUACUGGUGAGUAGUACCCGUGGUCGGUGUACGAAGUUUCAGCCCGCUAGUGGAAGAAGAUGGCGGGCUGAAGCUUCGUGCAC
# B10: hsa-mir-3941 (structured_RNA)
# RNA: GGGACAAGUGGUAUCUGGAGGCCUUGUCGGUGUACGAAGUUUCAGCGUAGAUUGAAAGCCCUAAUUUUACGCUGAAGCUUCGUGCAC
# B11: hsa-mir-4329 (structured_RNA)
# RNA: GGGAGUAUUAAUGGGCCGGGACACUUUAGGUGUACGAAGUUUCAGCUGGAGUUUUUUUUUCCUCCUGGCUGAAGCUUCGUGCAC
# B12: hsa-mir-548ax (structured_RNA)
# RNA: GGGACCGACCGUGCGAAGAAAUUAUAGUGGUGUACGAAGUUUCAGCGCCAUGGAAAGUAAUGGCGCUGAAGCUUCGUGCAC
# B13: hsa-mir-548ba (structured_RNA)
# RNA: GGGAACCCCAACAAUAAGAUAUCCUGCGGGUGUACGAAGUUUCAGCUGCUAUUAGAAAGUAAUGGCAGCUGAAGCUUCGUGCAC
# Tests used:
# Test in all cases: FOREST: bead pull-down of RNA structure library v1, barcode microarray; U1A/LIN28A: 20 mM HEPES pH 7.5, 80 mM KCl, 20 mM NaCl, 10% glycerol, 2 mM DTT, 0.1 ug/uL BSA, 4 C; BG4/CIRBP/DHX36: 10 mM Tris-HCl pH 7.5, 100 mM KCl (or LiCl),; high values mean tight binding
# LIN28A = molecular target: T1, LIN28A
# CIRBP = molecular target: T2, CIRBP
# DHX36 = molecular target: T3, DHX36
Binder,binding signal (LIN28A) [z-score],binding signal (CIRBP) [z-score],binding signal (DHX36) [z-score]
B1,0.98,1.25,-0.0971
B2,0.973,2.3,1.37
B3,0.973,0.0186,0.235
B4,0.971,1.45,1.93
B5,0.967,-0.197,0.209
B6,0.962,-0.496,0.199
B7,0.958,-0.0109,-0.972
B8,0.955,0.771,-0.282
B9,0.943,-0.88,0.248
B10,0.941,0.132,-0.555
B11,0.93,0.631,1.76
B12,0.928,1,0.547
B13,0.916,1.37,0.565
